Experimental data: PMC8146505, “Enantioselective Interactions of Anti-Infective 8-Aminoquinoline Therapeutics with Human Monoamine Oxidases A and B” (Pharmaceuticals, 2021)

Chains of the proteins cited; added tags and fusions are not shown.
UniProt P21397, whole entry: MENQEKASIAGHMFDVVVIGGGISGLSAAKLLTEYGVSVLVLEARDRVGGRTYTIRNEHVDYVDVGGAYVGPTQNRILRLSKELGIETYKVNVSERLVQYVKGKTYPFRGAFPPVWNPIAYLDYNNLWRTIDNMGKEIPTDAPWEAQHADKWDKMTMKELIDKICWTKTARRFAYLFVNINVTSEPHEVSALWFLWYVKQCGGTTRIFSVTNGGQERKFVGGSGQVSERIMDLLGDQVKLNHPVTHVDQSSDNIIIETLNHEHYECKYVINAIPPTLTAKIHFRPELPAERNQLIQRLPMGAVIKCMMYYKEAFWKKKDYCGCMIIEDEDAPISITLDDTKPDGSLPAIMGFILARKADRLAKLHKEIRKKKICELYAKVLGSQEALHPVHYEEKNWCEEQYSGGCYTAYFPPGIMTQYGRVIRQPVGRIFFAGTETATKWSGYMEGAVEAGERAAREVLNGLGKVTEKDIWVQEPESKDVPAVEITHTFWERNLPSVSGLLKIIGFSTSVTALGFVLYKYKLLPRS

Molecular target: T1, recombinant human MAO-A (Homo sapiens, UniProt P21397)
T1 construct: purchased BD Biosciences (Bedford, MA, USA)
Assay: In vitro MAO inhibition assay (kynuramine oxidative deamination), IC50
Format: biochemical
Protocol: A fixed concentration of kynuramine substrate and varying concentrations of the test compounds were used to determine the IC50 values. Kynuramine concentrations for MAO-A and -B assays were 80 μM and 50 μM, respectively. The concentrations of PQ and NPC1161 enantiomers varied from 0.1 μM to 200 μM, for the rhMAO-A and -B enzyme activity inhibition. The test compounds were dissolved in DMSO, diluted in the buffer solution just before the assay, and pre-incubated with the enzyme (MAO-A (5 μg/mL) or -B (12.5 μg/mL)) for 10 min at 37 °C. […] The enzymatic reactions were initiated by the addition of the substrate (kynuramine 80 and 50 μM, for MAO-A and -B, respectively) and incubated for 20 min at 37 °C. […] The formation of 4-hydroxyquinoline (the enzyme reaction end product) was recorded fluorometrically on a SpectraMax M5 fluorescence plate reader (Molecular Devices, Sunnyvale, CA, USA) with 320 nm excitation and 380 nm emission wavelengths, using the Soft MaxPro-6 program. The inhibition of enzyme activity was calculated in terms of product formation as a percentage of corresponding controls (enzyme–substrate reaction without inhibitors). Assay controls, to define the interference of the test compounds with the fluorescence measurements, were set up simultaneously, and the enzyme or substrate was added after stopping the reaction. […]

With `COc1cc(NC(C)CCCN)c2ncccc2c1` (racemic) [(RS)-(±)-Primaquine, Primaquine] the “Selectivity for inhibition of MAO-A versus MAO-B” value was 1.2 fold.
